In PubChem BioAssay AID652048 (National Center for Advancing Translational Sciences (NCATS), 2013) one finds max activation data, which are given here for 25 compounds.

Sequences of proteins named here, by UniProt entry; tags and fusion partners are left off.
UniProt P35462, whole entry: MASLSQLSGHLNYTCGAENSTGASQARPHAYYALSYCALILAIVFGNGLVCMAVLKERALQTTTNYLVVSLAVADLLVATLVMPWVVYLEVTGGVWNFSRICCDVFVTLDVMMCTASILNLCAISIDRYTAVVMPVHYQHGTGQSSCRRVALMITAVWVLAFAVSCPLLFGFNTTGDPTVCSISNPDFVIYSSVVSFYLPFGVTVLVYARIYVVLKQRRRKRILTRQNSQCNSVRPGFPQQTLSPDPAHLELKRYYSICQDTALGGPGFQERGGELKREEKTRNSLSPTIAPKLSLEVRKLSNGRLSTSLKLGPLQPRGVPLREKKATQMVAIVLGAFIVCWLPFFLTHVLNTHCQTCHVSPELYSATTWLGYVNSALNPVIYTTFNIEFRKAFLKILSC

Only a part is listed here, and it is no random draw. Activity calls are given as the source filed them. Cut-off read from the data, not from the text of the source: active = max activation above about 30%; inactive = the rest.

For the assay, the target named is D(3) dopamine receptor (Homo sapiens) (UniProt P35462). Put plainly: qHTS of D3 Dopamine Receptor Agonist: qHTS. Note: 0% is about no effect. The following applies: D3R DiscoveRx beta-arrestin cells, luminescence, 90 min; stronger effect = higher value. An excerpt: D3 DARs represent a very important target for the treatment of several neuropsychiatric disorders. Indeed, one of the most promising therapeutic applications for the D3 DAR is in the area of addiction and related disorders. […] These findings have been observed with a number of addictive substances including cocaine, amphetamine, nicotine, and alcohol. […] Antagonism of the D3 DAR may also be therapeutic in the treatment of schizophrenia or psychosis. […] Since the D3 DAR is expressed in areas of the CNS associated with the control of mood and emotion, it has been hypothesized that selective antagonism of the D3 DAR may be effective in treating psychosis without inducing the motor side effects typically seen with D2 DAR antagonists.
This part of the project aims to discover novel agonist.
NIH Chemical Genomics Center [NCGC]
NIH Molecular Libraries Probe Centers Network [MLPCN]
Assay Submitter (PI): David Sibley, NINDS
Freshly passaged cells are plated in 1536 well white, solid bottom plates at a density of 1500 cells/well in 3microl of complete media. After an overnight incubation at 37 degrees C in 5% CO2, cells are loaded with 23nl of test compound from the compound library (as well as dopamine controls) using a 1536 pintool and incubated at 37 degrees C for 90 minutes. Two microliters of DiscoveRx reagent is then added to all cells, and they are incubated for an additional 30 - 60 minutes at room temperature. Following incubation, luminescence is measured on a ViewLux CCD-based luminometer reader using a 20 sec exposure time.
For orientation: In qHTS, concentration-response curves come from the screen itself.
`COc1ccc(C(c2nnnn2C2CCCC2)N2CCC(n3c(=O)[nH]c4ccccc43)CC2)cc1` (stereo not given): the max activation was inactive: -5.54%. `O=C(NCC1(N2CCOCC2)CCCCC1)c1ccccc1Br`: the max activation is inactive: 1.31%. The same measure for `CCCOc1ccc(C(=O)NCC2(N(C)C)CCCCC2)cc1OC`: inactive: -11.3%; for `CCCCOc1ccccc1C(=O)NCC1(N2CCOCC2)CCCCC1`: inactive: 12.3%.

Consider `Cc1ccc(C(=O)NCC2(N(C)C)CCCCC2)o1`, for which the max activation was inactive: 3.19%. As to `CCCCn1nnnc1C(c1ccccc1OC(F)(F)F)N1CCC(n2c(=O)[nH]c3ccccc32)CC1` (stereo not given), the max activation was inactive: 3.43%. On to `CC(C)c1ccc(NC2CCN(C(=O)OC(C)(C)C)CC2)cc1`, for which the max activation was inactive: 2.72%. As to `O=[N+]([O-])c1cc([N+](=O)[O-])c(OC2CCCCC2O)c([N+](=O)[O-])c1` (stereo not given), the max activation was inactive: 0.459%. With `CN(C)c1cccc(C(=O)NCC2(N3CCCCC3)CCCCC2)c1`, the max activation is inactive: -19%. Take `COc1ccc(CN(CCCl)CCCl)cc1Cl`: the max activation was inactive: 7.77%.

With `O=C(NCC1(N2CCOCC2)CCCCC1)c1cc(F)c(F)cc1Cl`, the max activation is inactive: 1.61%. `CCC(c1nnnn1C(C)(C)C)N1CCC(n2c(=O)[nH]c3ccccc32)CC1` (stereo not given): the max activation was inactive: -9.57%.

As to `COc1cc(OC)c(C(=O)NCC2(N(C)C)CCCCC2)cc1OC`, the max activation is inactive: -2.85%. Take `CCCCn1nnnc1C(c1ccnc2ccccc12)N1CCC(n2c(=O)[nH]c3ccccc32)CC1` (stereo not given): the max activation is inactive: 1.23%.

On to `CCOC(=O)N1CCC(Nc2ccc(C)cc2)CC1`, for which the max activation is inactive: 2.79%. Regarding `COc1cccc(C(c2nnnn2C(C)(C)C)N2CCC(n3c(=O)[nH]c4ccccc43)CC2)c1OC` (stereo not given), the max activation is inactive: -15.1%. The same measure for `N/C(=N\O)c1c(N)no[n+]1[O-]`: inactive: 0.734%; for `O=c1[nH]c2ccccc2n1C1CCN(C(c2cccs2)c2nnnn2C2CCCC2)CC1` (stereo not given): inactive: 9.52%.

In the case of `O=C(O)c1cccc(Nc2c([N+](=O)[O-])cc([N+](=O)[O-])cc2[N+](=O)[O-])c1`, the max activation was inactive: -24%. In the case of `CCc1cc(C(=O)NCC2(N3CCCCC3)CCCCC2)sc1C`, the max activation was inactive: -20.3%. As for `O=C(OC1CN2CCC1CC2)C1c2ccccc2C=Cc2ccccc21` (stereo not given), the max activation was inactive: 2.44%.

`CCCCn1nnnc1C(c1cccc(OC)c1OC)N1CCC(n2c(=O)[nH]c3ccccc32)CC1` (stereo not given): the max activation was inactive: 5.97%. Turning to `COc1cc(C(=O)NCC2(N3CCOCC3)CCCCC2)cc(OC)c1C`, the max activation was inactive: -5.27%. Regarding `CCCCn1nnnc1C(c1ccccc1)N1CCC(n2c(=O)[nH]c3ccccc32)CC1` (stereo not given), the max activation was inactive: -7.56%. Take `O=C(NCC1(N2CCOCC2)CCCCC1)c1cc(Br)ccc1Cl`: the max activation is inactive: -3.13%.
